Patent publication US20250263405A1, “HISTONE DEACETYLASE 6 INHIBITOR COMPOUNDS AND USES THEREOF” (VALO HEALTH, INC., priority 2021, published 2025)

The chains behind the UniProt entries cited, without tags or fusion partners.
UniProt Q9UBN7, whole entry: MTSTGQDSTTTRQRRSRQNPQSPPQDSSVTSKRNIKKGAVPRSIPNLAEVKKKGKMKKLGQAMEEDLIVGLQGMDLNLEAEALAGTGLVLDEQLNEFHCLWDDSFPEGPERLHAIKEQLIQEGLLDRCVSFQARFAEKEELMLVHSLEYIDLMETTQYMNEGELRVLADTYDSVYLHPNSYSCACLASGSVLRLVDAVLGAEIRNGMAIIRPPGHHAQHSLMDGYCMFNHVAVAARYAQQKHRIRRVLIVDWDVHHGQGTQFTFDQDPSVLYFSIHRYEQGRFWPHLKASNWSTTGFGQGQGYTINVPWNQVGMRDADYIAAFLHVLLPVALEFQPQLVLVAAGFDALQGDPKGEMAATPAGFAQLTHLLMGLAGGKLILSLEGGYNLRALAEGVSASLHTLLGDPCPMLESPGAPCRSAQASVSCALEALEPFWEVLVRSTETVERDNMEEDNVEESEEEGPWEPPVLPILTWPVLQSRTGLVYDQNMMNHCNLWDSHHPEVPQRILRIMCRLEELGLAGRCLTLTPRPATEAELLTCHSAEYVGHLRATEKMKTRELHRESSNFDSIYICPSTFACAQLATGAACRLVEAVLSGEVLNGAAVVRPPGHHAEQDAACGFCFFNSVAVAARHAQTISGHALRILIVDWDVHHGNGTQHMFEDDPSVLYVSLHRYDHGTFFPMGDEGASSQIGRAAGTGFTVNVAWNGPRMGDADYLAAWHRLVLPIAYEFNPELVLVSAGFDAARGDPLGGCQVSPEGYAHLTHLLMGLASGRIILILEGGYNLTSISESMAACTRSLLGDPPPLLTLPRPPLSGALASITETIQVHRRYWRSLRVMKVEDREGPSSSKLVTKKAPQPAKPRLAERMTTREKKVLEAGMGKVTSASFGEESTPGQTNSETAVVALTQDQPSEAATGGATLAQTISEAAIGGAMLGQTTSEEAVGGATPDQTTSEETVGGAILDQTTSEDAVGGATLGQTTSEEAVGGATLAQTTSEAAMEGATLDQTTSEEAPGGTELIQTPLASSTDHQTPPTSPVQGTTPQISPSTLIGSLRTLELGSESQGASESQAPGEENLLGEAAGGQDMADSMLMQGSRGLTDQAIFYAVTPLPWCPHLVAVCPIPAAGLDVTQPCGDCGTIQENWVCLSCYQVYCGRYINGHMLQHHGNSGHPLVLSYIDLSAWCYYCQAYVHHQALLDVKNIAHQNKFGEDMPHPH

Molecular target: HDAC6 (Homo sapiens (Human), UniProt Q9UBN7)
Experiment: HDAC6 TR-FRET displacement assay
Conditions: read-out: HDAC6 IC50; displacement of fluorescein labeled tracer from HDAC6; 2 nM HDAC6, 1 nM tracer, 0.5 nM Tb-anti-GST antibody; 30 min pre-incubation, 6 hours at 25° C.
Text: HDAC6 and Tb-anti-GST antibody were purchased from Signal Chem (cat #PC124) and Cisbio (cat #61GSTTAH), respectively. HEPES, pH 7.5 was purchased from Teknova (Cat #H1575). All other buffer components, NaCl (cat #S5150), KCl (cat #60121), Triton X-100 (cat #T9284), GSH (cat #G4251), BGG (cat #G5009), and BSA (cat #A2153) were purchased from SIGMA.
Displacement of fluorescein labeled tracer 2-(6-hydroxy-3-oxo-3H-xanthen-9-yl)-5-({[5-(4-{[7-(hydroxycarbamoyl)-2H,3H,4H,5H-thieno[2,3-f][1,4]oxazepine-4-carbonyl]amino}phenoxy)pentyl]carbamothioyl}amino)benzoic acid from HDAC6 was measured in vitro using a TR-FRET assay. The assays were performed in 1536-well plates in a total volume of 6 μL in assay buffer consisting of 50 mM HEPES pH 7.5, 50 mM NaCl, 50 mM KCl, 0.01% Triton X-100, 0.5 mM GSH, 0.03% BGG, 0.01% BSA.
For concentration response curves (IC50 determination), Compounds were serially diluted 3-fold from 2 mM highest concentration to generate a 10-point concentration gradient. To perform the assay, 30 nL of compound gradient solutions were transferred to the assay plate using the ECHO acoustic dispenser to achieve a final concentration range of 10 μM to 0.000508 uM in 6 μL reaction. 3 μL of HDAC6 in assay buffer were added to the assay plates and pre-incubate at room temp. for 30 mins. After pre-incubation, 3 μL of the tracer and TB-anti-GST antibody mix were added to the assay plates. The final concentrations of HDAC6, tracer, and TB-anti-GST antibody for each assay are 2 nM, 1 nM, and 0.5 nM, respectively. Binding reactions were equilibrated at 25° C. for an additional 6 hours, then read in endpoint mode on the BMG PheraStar (BMG labtech) equipped with a 337-520-490 optical module. The ratio of the 520/490 nm emission was calculated to determine the relative amounts of HDAC6 and tracer complex residue in each well.
The percent inhibition of HDAC6 (IC50) was calculated according to the following equation.
As set forth in Table 1, “A” indicates an HDAC6 IC50 value of less than 200 nM; “B” indicates an HDAC6 IC50 value of greater than or equal to 200 nM and less than 500 nM; and “C” indicates an HDAC6 IC50 value of greater than or equal to 500 nM and less than 5 μM.

SMILES: C[C@H]1COc2cc(-c3noc(C(F)(F)F)n3)cc(F)c2CN1C(=O)C(C)(C)N
- IC50: 500 to 5000 nM

SMILES: C[C@H]1COc2cc(-c3noc(C(F)(F)F)n3)cc(F)c2CN1C(=O)CC(C)(C)O
- IC50: < 200 nM

SMILES: C[C@H]1COc2cc(-c3noc(C(F)(F)F)n3)cc(F)c2CN1C(=O)C1(F)CCN(C)CC1
- IC50: 500 to 5000 nM

SMILES: C[C@H]1COc2cc(-c3noc(C(F)(F)F)n3)cc(F)c2CN1C(=O)[C@@H]1CCN(C)C1
- IC50: 500 to 5000 nM

SMILES: C[C@H]1COc2cc(-c3noc(C(F)(F)F)n3)cc(F)c2CN1C(=O)C1CN(C)C1
- IC50: 500 to 5000 nM

SMILES: C[C@H]1COc2cc(-c3noc(C(F)(F)F)n3)cc(F)c2CN1C(=O)[C@H]1CCNC1=O
- IC50: < 200 nM

SMILES: C[C@H]1COc2cc(-c3nnc(C(F)F)o3)ccc2CN1C(=O)C1(C)CCOCC1
- IC50: < 200 nM

SMILES: Cc1cc(C(=O)N2Cc3c(F)cc(-c4noc(C(F)(F)F)n4)cc3OC[C@@H]2C)on1
- IC50: < 200 nM

SMILES: C[C@H]1COc2cc(-c3noc(C(F)(F)F)n3)cc(F)c2CN1C(=O)c1ccoc1
- IC50: 200 to 500 nM

SMILES: CNC(=O)c1ccc(C(=O)N2Cc3c(F)cc(-c4noc(C(F)(F)F)n4)cc3OC[C@@H]2C)cc1
- IC50: 200 to 500 nM

SMILES: C[C@H]1COc2cc(-c3noc(C(F)(F)F)n3)ccc2CN1C(=O)C1(C#N)CCN(C)CC1
- IC50: 500 to 5000 nM

SMILES: C[C@]1(C(=O)N2Cc3ccc(-c4noc(C(F)(F)F)n4)cc3OC[C@@H]2c2ccccc2)CCOC1
- IC50: < 200 nM

SMILES: C[C@H]1COc2cc(-c3noc(C(F)(F)F)n3)cc(F)c2CN1C(=O)c1cnn2ccccc12
- IC50: 200 to 500 nM

SMILES: C[C@H]1COc2cc(-c3noc(C(F)(F)F)n3)cc(F)c2CN1C(=O)CS(C)(=O)=O
- IC50: < 200 nM

SMILES: C[C@H]1COc2cc(-c3noc(C(F)(F)F)n3)cc(F)c2CN1C(=O)C12CCN(CC1)CC2
- IC50: 200 to 500 nM

SMILES: C[C@H]1COc2cc(-c3noc(C(F)(F)F)n3)cc(F)c2CN1C(=O)[C@H]1CCN(C)C1
- IC50: 500 to 5000 nM

SMILES: C[C@H]1COc2cc(-c3noc(C(F)(F)F)n3)cc(F)c2CN1C(=O)CC#N
- IC50: 200 to 500 nM

SMILES: C[C@H]1COc2cc(-c3noc(C(F)(F)F)n3)cc(F)c2CN1C(=O)C1(O)CC1
- IC50: < 200 nM

SMILES: C[C@H]1COc2cc(-c3noc(C(F)(F)F)n3)cc(F)c2CN1C(=O)C1CS(=O)(=O)C1
- IC50: 200 to 500 nM

SMILES: C[C@H]1COc2cc(-c3noc(C(F)(F)F)n3)cc(F)c2CN1C(=O)[C@@H]1CCCO1
- IC50: 200 to 500 nM

SMILES: C[C@H]1COc2cc(-c3noc(C(F)(F)F)n3)cc(F)c2CN1C(=O)CCN
- IC50: 500 to 5000 nM

SMILES: C[C@H]1COc2cc(-c3noc(C(F)(F)F)n3)cc(F)c2CN1C(=O)c1ccc(N2CCOCC2)nc1
- IC50: 200 to 500 nM

SMILES: C[C@H]1COc2cc(-c3noc(C(F)(F)F)n3)cc(F)c2CN1C(=O)C1(C#N)CC1
- IC50: 200 to 500 nM

SMILES: C[C@H]1COc2cc(-c3noc(C(F)(F)F)n3)cc(F)c2CN1C(=O)c1csnn1
- IC50: 200 to 500 nM

SMILES: CC1(C(=O)N2CCOc3cc(-c4nnc(C(F)F)o4)ccc3C2)CCOCC1
- IC50: < 200 nM

SMILES: C[C@H]1COc2cc(-c3noc(C(F)(F)F)n3)cc(F)c2CN1C(=O)C1(C)CCNCC1
- IC50: 500 to 5000 nM

SMILES: C[C@@]1(C(=O)N2Cc3ccc(-c4noc(C(F)(F)F)n4)cc3OC[C@@H]2c2ccccc2)CCOC1
- IC50: 200 to 500 nM

SMILES: C[C@H]1COc2cc(-c3noc(C(F)(F)F)n3)cc(F)c2CN1C(=O)CCc1nccs1
- IC50: < 200 nM
